In patent US20120142040:

Test system: H3K4me2-biotin peptide (1ARTKme2QTARKSTGGKAPRKQLYKbiotin)

Q: How did the “peptide methylation state after the demethylase assay (MassSQUIRM, MALDI mass spectrometry)” value turn out when recombinant LSD1 (BPS Biosciences) was run?
A: from completely di-methylated to 97% un-methylated
